## scFv variants of Ab-14 (heavy chain) against a SARS-CoV-2 spike peptide

Binding partner: SARS-CoV-2 spike HR2 peptide, sequence PDVDLGDISGINAS.

Parent: Ab-14, a human scFv built as VH, the linker GGGGSGGGGSGGGGS, VL. Only the CDRs of the heavy chain vary.
VH: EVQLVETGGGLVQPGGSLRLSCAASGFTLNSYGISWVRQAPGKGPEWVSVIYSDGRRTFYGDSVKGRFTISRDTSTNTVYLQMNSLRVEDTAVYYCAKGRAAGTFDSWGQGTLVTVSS
VL: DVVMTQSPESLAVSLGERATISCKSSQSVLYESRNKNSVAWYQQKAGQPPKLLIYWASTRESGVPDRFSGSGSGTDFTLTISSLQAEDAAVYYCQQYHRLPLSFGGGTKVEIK

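The parent was found by panning a naive human phage display library on the peptide. This is the validation round: designs drawn from the data on random variants, tested in the same kind of assay. Their group label is 14H_Ctrl (Ctrl: baseline library sampled from a position-specific scoring matrix, with some repeated check sequences). Affinity was read by AlphaSeq, a pooled yeast mating assay with surface-displayed partners. After mating in shaken culture at 30 °C for 16 h, diploids were selected and their barcode pairs sequenced. Scores were corrected for input abundance and mapped to Kd with protein pairs of known affinity run in the same pool. Mating was done six times.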

Sequences are complete VH domains.
Numbers give log10(Kd / nM), so 0 is 1 nM and 3 is 1 µM. Smaller is tighter.
An entry "nd" has no value in the source: the pair was not observed among the diploids in that replicate. This suggests poor binding but is not conclusive.
Nonspecific signal, from three strains lacking the peptide, appeared in 1% of pairings of all heavy chain designs, centred on 2.08 (5% of these signals below 0.84); values are not corrected for it. For each scFv, signals with the empty controls are counted beside the result, with their mean in brackets.

VH	log10 Kd, replicates	empty controls
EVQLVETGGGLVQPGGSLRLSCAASGFTLNSYGISWVRQAPGKGPEWVSVIYADGRRTAYGDSVKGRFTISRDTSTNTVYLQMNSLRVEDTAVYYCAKGRVAGTSDSWGQGTLVTVSS	nd / nd / nd / nd / -0.11 / -0.21	0/18
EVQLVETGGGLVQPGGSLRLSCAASGHTLNKYGISWVRQAPGKGPEWVSVIYSDGYRTFYGDSVKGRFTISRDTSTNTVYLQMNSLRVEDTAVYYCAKGRAAGTFDSWGQGTLVTVSS	nd / nd / nd / nd / nd / nd	0/18
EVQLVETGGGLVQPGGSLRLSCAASGFTLNSYGISWVRQAPGKGPEWVSVIYADGRRTFYGDSVKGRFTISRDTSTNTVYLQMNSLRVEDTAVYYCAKGRPAGTFDQWGQGTLVTVSS	nd / 1.21 / nd / 0.81 / nd / 1.54	0/18
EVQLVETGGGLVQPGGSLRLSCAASGFTLNSYGISWVRQAPGKGPEWVSVIYADGRRTFYGDSVKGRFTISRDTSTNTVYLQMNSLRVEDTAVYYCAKGRAAGLFDSWGQGTLVTVSS	nd / nd / nd / nd / 2.22 / nd	0/18
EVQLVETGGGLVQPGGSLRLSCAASGFTLNSYGISWVRQAPGKGPEWVSVIYSDGRRTFYSDSVKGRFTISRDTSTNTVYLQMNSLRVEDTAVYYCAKGRNGGTFDVWGQGTLVTVSS	nd / 0.51 / nd / nd / nd / 2.16	0/18
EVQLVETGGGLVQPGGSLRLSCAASGFTLNSYGISWVRQAPGKGPEWVSVIYSDGRRTAYGDSVKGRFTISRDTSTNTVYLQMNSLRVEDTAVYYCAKGRLADTFDSWGQGTLVTVSS	nd / nd / nd / nd / nd / nd	0/18
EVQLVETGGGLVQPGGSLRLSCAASGFTLNSYGISWVRQAPGKGPEWVSVIYSDGRRTFYGDSVKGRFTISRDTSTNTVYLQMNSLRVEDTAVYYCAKGIAAGTFDSWGQGTLVTVSS	2.36 / 2.13 / 2.04 / 2.82 / 3.25 / 3.20	1/18 (2.37)
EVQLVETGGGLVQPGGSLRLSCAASGFTLNDYGISWVRQAPGKGPEWVSVIYSDGRRTFYGDSVKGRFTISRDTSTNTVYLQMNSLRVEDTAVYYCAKGDAAGTFDLWGQGTLVTVSS	nd / 0.06 / -0.56 / -0.45 / nd / nd	0/18
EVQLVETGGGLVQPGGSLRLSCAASGFTLNSYGISWVRQAPGKGPEWVSVIYSDGRRTFYQDSVKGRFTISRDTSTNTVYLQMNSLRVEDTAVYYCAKGRAAGTFKSWGQGTLVTVSS	nd / nd / nd / nd / nd / nd	0/18
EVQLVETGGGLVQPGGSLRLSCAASGFNLNSYGISWVRQAPGKGPEWVSVIYSDGRRTFYGDSVKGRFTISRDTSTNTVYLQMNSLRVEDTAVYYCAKGRAAGTYDWWGQGTLVTVSS	nd / nd / nd / nd / 0.85 / nd	0/18
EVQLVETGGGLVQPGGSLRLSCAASGFTRNSYGISWVRQAPGKGPEWVSVIYSDGRRTFYGDSVKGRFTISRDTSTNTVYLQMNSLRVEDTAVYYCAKWRARGTFDAWGQGTLVTVSS	nd / nd / nd / nd / nd / nd	0/18
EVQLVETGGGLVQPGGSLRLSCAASGFTLNSYGISWVRQAPGKGPEWVSVIYSDGRRTFYGDSVKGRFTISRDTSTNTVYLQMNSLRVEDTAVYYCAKGQADGTFDSWGQGTLVTVSS	nd / nd / nd / nd / 2.58 / nd	0/18
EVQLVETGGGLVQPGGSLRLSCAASGFTLNSYGISWVRQAPGKGPEWVSVIYADGRRTFYGDSVKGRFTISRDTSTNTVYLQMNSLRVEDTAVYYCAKGEDAGTFDSWGQGTLVTVSS	0.33 / 0.31 / 0.07 / -0.38 / 0.30 / 0.50	1/18 (1.80)
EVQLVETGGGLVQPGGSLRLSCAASGETLRSYGISWVRQAPGKGPEWVSVIYSDGRRTFYDDSVKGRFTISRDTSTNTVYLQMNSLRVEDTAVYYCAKGRSAGTFDSWGQGTLVTVSS	2.09 / 1.87 / 2.89 / 1.40 / 2.88 / 3.02	2/18 (2.03)
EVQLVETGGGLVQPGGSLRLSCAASGFTLNSYGISWVRQAPGKGPEWVSVIYSDGERTFYGDSVKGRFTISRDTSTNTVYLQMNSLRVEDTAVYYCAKGRAAGTFSTWGQGTLVTVSS	nd / 2.20 / nd / nd / nd / nd	1/18 (1.53)
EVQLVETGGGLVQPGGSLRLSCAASGETLNSYGISWVRQAPGKGPEWVSVIYSDGRRTFYSDSVKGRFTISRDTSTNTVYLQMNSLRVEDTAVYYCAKGRAAGTFDSWGQGTLVTVSS	0.92 / 0.85 / 0.76 / 0.24 / 0.74 / 0.72	1/18 (2.02)
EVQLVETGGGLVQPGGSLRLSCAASGFTLESYGISWVRQAPGKGPEWVSVIYSDGRRTFYGDSVKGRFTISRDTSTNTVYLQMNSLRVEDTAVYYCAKGRAALTFDSWGQGTLVTVSS	nd / nd / nd / nd / nd / nd	0/18
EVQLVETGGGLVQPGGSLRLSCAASGFTLNSYGISWVRQAPGKGPEWVSVIYSDGHRTFYGDHVKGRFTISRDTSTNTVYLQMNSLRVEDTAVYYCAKGRAAGTFDSWGQGTLVTVSS	nd / nd / 0.83 / 1.56 / 0.51 / 1.35	0/18

The first 3 entries again:

{"VH": "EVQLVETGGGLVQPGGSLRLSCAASGFTLNSYGISWVRQAPGKGPEWVSVIYADGRRTAYGDSVKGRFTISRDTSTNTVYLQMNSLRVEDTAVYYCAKGRVAGTSDSWGQGTLVTVSS", "log10 Kd, replicates": "nd / nd / nd / nd / -0.11 / -0.21", "empty controls": "0/18"}
{"VH": "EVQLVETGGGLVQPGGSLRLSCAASGHTLNKYGISWVRQAPGKGPEWVSVIYSDGYRTFYGDSVKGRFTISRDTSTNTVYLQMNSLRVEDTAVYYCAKGRAAGTFDSWGQGTLVTVSS", "log10 Kd, replicates": "nd / nd / nd / nd / nd / nd", "empty controls": "0/18"}
{"VH": "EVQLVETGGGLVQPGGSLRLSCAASGFTLNSYGISWVRQAPGKGPEWVSVIYADGRRTFYGDSVKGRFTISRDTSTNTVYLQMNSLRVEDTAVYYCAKGRPAGTFDQWGQGTLVTVSS", "log10 Kd, replicates": "nd / 1.21 / nd / 0.81 / nd / 1.54", "empty controls": "0/18"}

A sequence measured in both rounds can read differently, since the two assays cover different ranges.
The authors' rule: three or more of the six replicates give a measured affinity, fewer mean a poor binder.

Data: MIT Lincoln Laboratory AlphaSeq set, Li et al. 2023, doi:10.1038/s41467-023-39022-2, as distributed in FLAb.